Test results taken from ChEMBL document CHEMBL1148394, “Design, synthesis, and in vitro biological evaluation of small molecule inhibitors of estrogen receptor alpha coactivator binding” (J Med Chem, 2004).

By UniProt entry, the sequences of proteins in these tests, tags left out. Where a name states a change or a piece, a line headed by the entry shows the natural chain unless it says otherwise.
UniProt Q92731: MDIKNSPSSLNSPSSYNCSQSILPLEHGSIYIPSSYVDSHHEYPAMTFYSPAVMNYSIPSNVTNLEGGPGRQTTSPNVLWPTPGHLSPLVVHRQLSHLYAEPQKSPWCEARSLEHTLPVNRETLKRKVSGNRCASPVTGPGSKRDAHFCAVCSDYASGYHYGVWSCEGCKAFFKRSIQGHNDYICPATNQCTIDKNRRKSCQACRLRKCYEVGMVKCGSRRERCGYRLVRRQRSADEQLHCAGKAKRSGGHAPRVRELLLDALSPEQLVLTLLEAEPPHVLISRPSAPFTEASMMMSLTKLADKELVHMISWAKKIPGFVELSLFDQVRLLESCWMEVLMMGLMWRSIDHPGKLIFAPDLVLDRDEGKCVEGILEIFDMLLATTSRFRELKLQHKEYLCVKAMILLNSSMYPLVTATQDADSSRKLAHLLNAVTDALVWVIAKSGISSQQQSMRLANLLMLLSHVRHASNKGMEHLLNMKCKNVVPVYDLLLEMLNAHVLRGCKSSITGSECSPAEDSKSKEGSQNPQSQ
UniProt P03372: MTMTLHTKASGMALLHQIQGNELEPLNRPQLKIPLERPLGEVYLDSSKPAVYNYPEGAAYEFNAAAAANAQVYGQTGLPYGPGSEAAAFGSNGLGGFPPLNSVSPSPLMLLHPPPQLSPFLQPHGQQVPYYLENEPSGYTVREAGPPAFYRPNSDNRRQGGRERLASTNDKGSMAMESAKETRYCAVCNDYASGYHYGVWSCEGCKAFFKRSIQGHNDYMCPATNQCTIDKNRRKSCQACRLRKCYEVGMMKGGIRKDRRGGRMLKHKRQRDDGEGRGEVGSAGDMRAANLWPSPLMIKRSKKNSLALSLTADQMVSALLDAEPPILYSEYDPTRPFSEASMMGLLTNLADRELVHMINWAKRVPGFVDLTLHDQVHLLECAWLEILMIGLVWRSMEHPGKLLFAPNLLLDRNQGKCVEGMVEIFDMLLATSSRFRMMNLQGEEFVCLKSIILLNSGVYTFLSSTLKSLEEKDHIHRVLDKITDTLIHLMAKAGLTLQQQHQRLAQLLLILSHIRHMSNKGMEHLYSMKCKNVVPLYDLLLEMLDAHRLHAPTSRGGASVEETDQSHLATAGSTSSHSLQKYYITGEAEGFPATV

Target: Estrogen receptor (Homo sapiens, UniProt Q92731+P03372)
Assay: Binding affinity towards estrogen receptor was determined
Assay type: protein assay
Outline: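 Competitive radiometric binding to the ERα ligand-binding pocket, displacing [3H]estradiol and reported as relative binding affinity with estradiol set at 100%. Run per published methods. Receptor sources used in the work were lamb uterine cytosol, purified full-length human ERα and ERβ, or His6-tagged ERα LBD (304–554); which of these served here is unspecified.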

CCCCc1cc(NCCC)nc(NCCC)n1
Ki: 32 µM
